In patent US9932349B2 (priority 2000, dated 2018) one finds Ki data, which are given here for one substance.

Sequences of proteins named here, by UniProt entry; tags and fusion partners are left off. A change or cut given only in a name is not applied to a line headed by its entry. Residues count along the entry.
UniProt A0A286XTF2, 1-366: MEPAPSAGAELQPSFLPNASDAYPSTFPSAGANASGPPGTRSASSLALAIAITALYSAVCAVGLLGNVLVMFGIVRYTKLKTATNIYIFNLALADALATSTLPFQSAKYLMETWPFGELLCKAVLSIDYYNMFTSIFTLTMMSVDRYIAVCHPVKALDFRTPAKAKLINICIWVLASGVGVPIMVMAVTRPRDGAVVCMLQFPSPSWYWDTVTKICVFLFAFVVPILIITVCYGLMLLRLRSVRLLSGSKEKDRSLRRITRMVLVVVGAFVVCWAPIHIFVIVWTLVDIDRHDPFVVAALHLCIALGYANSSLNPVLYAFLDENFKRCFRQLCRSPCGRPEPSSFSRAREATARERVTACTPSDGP
UniProt P41144: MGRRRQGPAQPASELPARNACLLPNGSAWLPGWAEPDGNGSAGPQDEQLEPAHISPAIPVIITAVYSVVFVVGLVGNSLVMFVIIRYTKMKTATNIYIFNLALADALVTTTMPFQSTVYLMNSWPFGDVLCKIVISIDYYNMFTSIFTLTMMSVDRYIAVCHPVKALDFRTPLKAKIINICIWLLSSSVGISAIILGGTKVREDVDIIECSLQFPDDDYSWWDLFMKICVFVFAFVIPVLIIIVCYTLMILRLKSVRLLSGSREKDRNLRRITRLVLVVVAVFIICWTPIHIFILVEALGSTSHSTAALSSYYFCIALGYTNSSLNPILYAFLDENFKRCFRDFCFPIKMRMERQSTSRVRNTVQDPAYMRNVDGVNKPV
UniProt P35372, whole entry: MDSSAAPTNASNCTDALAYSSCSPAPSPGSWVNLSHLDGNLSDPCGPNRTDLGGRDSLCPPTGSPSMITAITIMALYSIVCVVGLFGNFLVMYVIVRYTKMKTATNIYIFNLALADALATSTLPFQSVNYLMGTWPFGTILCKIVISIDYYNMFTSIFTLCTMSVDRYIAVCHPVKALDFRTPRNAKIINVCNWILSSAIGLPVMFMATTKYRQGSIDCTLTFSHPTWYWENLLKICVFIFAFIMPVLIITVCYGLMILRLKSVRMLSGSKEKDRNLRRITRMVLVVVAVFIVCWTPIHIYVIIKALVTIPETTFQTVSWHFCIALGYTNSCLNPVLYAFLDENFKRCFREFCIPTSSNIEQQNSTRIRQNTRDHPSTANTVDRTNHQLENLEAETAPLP
UniProt P41145: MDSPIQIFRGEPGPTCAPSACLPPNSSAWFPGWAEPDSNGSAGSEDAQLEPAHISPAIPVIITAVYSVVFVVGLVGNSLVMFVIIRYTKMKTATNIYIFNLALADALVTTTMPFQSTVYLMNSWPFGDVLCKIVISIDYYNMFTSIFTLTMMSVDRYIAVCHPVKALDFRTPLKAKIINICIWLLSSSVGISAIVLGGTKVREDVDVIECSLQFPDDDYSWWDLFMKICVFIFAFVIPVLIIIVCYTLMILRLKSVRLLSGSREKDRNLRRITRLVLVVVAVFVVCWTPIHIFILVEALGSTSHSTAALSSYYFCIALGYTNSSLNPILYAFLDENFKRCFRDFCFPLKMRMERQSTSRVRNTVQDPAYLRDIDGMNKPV

The target in assay [1] is T1, δ opioid receptor (Cavia porcellus, UniProt A0A286XTF2).
T1 construct: determined in guinea pig brain cells; from tissue; host or cells: guinea pig brain
It counts as binding, guinea pig. Particulars: read-out: [3H]Naltrindole (δ).

Assay [2] has as its target T2, κ opioid receptor (Cavia porcellus, UniProt P41144).
T2 construct: determined in guinea pig brain cells; from tissue; host or cells: guinea pig brain
It counts as binding, guinea pig. Particulars: read-out: [3H]U69,593 (κ).

Assay [3] has as its target T3, human μ opioid receptor (Homo sapiens, UniProt P35372).
T3 construct: expressed in transfected cells; host or cells: Chinese hamster ovary (CHO) cells
It counts as binding. The note with it: read-out: [3H]DAMGO (μ).

The target in assay [4] is T4, human δ opioid receptor (Homo sapiens, UniProt P41143).
T4 construct: expressed in transfected cells; host or cells: Chinese hamster ovary (CHO) cells
The assay is described as follows: binding to cloned human receptor in CHO cell membranes, [3H]Naltrindole. The note with it: Table 5 standards; marked a: chinese hamster ovary. On the procedure:
The affinities of the compounds of the invention were determined in guinea pig brain cells by the method described in Wentland et al. Biorgan. Med. Chem. Lett. 9. […] CHO cell membranes, expressing the human μ, δ, or κ opioid receptor, were incubated with 12 different concentrations of the compounds in the presence of receptor-specific radioligands at 25° C., in a final volume of 1 ml of 50 mM Tris-HCl, pH 7.5. Nonspecific binding was determined using 1 μM naloxone. Data are the mean value ±S.E.M. from three experiments, performed in triplicate.

Assay [5] addresses T5, human κ opioid receptor (Homo sapiens, UniProt P41145).
T5 construct: expressed in transfected cells; host or cells: Chinese hamster ovary (CHO) cells
It counts as binding. Particulars: read-out: [3H]U69,593 (κ).

Consider “Cyclazocine [(±)-Cyclazocine, reference compound]”, for which the Ki in assay [1] stood at 1.1 ± 0.04 nM; in assay [2], 0.18 ± 0.02 nM; in assay [3], 0.16 ± 0.01 nM; in assay [4] it was 2 ± 0.22 nM; in assay [5], 0.07 ± 0.01 nM.
